Two compounds from ChEMBL document CHEMBL6103640, “Discovery of 5-Phenylthiazol-2-amine Derivatives as Novel PI4KIIIβ Inhibitors with Efficacious Antitumor Activity by Inhibiting the PI3K/AKT Axis” (J Med Chem, 2025) can be followed below.

SMILES strings stand for the structures. Active and inactive are the calls of the source. The calls are words filed in the database; no cut-off is given here.

This test concerns NCI-H446. The test can be described thus: Inhibition of PI3K/AKT signaling pathway in human NCI-H446 cells assessed as decrease in p-AKT level at 10 uM incubated for 48 hrs by Western blot analysis. The test is classed as cell-based. Background: In western blotting, separated proteins are transferred to a membrane and probed.

Regarding `Cc1nc(NC(=O)N2CCC[C@H]2C(N)=O)sc1-c1ccnc(C(C)(C)C(F)(F)F)c1` [ALPELISIB], the inhibition result was “Active”.

`CC(=O)/N=c1/[nH]c(C)c(-c2ccc(Cl)c(S(=O)(=O)NCCO)c2)s1`: the inhibition result was “Active”.
